Target: recombinant human renin (Homo sapiens, UniProt P00797)
Assay: co-crystals diffracting at […] Å (structure not reported here); IC50 also given

Chains of the proteins cited; added tags and fusions are not shown. Residues count along the entry.
UniProt P00797, 67-406 limits assumed: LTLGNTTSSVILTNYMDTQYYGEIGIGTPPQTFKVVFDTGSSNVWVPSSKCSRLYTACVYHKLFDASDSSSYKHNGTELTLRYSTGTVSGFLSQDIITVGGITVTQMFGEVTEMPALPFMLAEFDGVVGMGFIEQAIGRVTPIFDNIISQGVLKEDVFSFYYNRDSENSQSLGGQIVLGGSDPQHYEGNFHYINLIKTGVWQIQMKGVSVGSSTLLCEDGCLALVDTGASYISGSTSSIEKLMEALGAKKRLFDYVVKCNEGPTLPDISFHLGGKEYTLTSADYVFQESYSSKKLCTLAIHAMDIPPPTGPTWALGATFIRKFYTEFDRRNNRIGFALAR

IC50: 700 nM
Structure (SMILES): CCCCNc1c(N(C)C[C@H](O)[C@@H](N)C[C@H](Cc2ccc(OC)c(OCCCOC)c2)C(C)C)c(=O)c1=O (single isomer, unassigned)

Reference: publication PMC2453115
